Experimental data from EP1881000A1, “Conjugates of 2-fluoro-2-deoxy-glucose and their uses as anti cancer agents” (INSTITUT NATIONAL DE LA SANTE ET DE LA RECHERCHE MEDICALE …, priority 2006, dated 2008).

Experiment: Determination of the Maximum Tolerated Dose (MTD), acute toxicity after a single IP injection
Assay type: in vivo, male OF1 mice
Design: key: per mouse 0 = absent, 1 = present per sign; summed over group
Conditions: group sum
Experimental: Drugs were dissolved in a mixture of dimethylacetamide (Sigma) and oleic macrogolglycerides (Labrafil® M1944Cs, Gattefossé) (10:90%, vol/vol).
Initially, the Maximum Tolerated Dose (MTD) after intraperitoneal (IP) administration was determinated.
For MTD determination, study was conducted on male OF1 mice weighing about 30 g, 6-weeks old (Charles River, France). Groups of five to six mice received a single IP injection of each drug at variable doses according to the compound (see Tables 2, 3 and 4).
Individual dose were based on the body weight of each mouse. All the mice received a constant injection volume of 250 µL per 25 g of body weight. A group of seven control mice received the vehicle.
After IP injection, mice were weighed and observed every two days over a 2 week-period to evaluate general clinical state. For each animal, a clinical state score (CSS) was calculated based on the absence (value 0) or presence (value 1) of diarrhoea, lethargy, rough coat and closed eyes. CSS was then calculated per group by summing individual scores. Loss of weight and mortality were also recorded.

O=C(O)CCCc1ccc(N(CCCl)CCCl)cc1 [chlorambucil, reference compound]
2: Clinical State Score (CSS) diarrhoea (single IP 0.035 mmol/kg)
0: Clinical State Score (CSS) closed eyes (single IP 0.0175 mmol/kg) | Clinical State Score (CSS) rough coat (single IP 0.0175 mmol/kg) | Clinical State Score (CSS) closed eyes (single IP 0.035 mmol/kg) | Clinical State Score (CSS) rough coat (single IP 0.05 mmol/kg) | Clinical State Score (CSS) closed eyes (single IP 0.07 mmol/kg) | Clinical State Score (CSS) lethargy (single IP 0.07 mmol/kg) | Clinical State Score (CSS) closed eyes (single IP 0.09 mmol/kg) | Clinical State Score (CSS) lethargy (single IP 0.09 mmol/kg)
